ChEMBL document CHEMBL1268960, “Discovery of cell-active phenyl-imidazole Pin1 inhibitors by structure-guided fragment evolution” (Bioorg Med Chem Lett, 2010)

Protein sequences, listed by entry. Tags and fused reporters are not part of them.
UniProt Q13526, whole entry: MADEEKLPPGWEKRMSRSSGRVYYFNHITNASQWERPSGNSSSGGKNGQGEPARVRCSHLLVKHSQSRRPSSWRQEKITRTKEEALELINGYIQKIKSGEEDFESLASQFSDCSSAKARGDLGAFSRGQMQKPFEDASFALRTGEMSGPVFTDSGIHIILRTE

Target: Peptidyl-prolyl cis-trans isomerase NIMA-interacting 1 (Homo sapiens, UniProt Q13526)
Assay: Binding affinity to Pin1 by isothermal calorimetry

- Kd: 1.7 µM
Compound: O=C(O)c1nc(-c2ccccc2)[nH]c1C(=O)O
